Measurements reported in patent US11498904B2, “Substituted biaryl compounds as indoleamine 2,3-dioxygenase (IDO) inhibitors” (MERCK SHARP & DOHME CORP., priority 2017, dated 2022).
pIC50: −log10 of the molar value. Where a name gives a salt, the structure may show the parent alone.

Chains of the proteins cited; added tags and fusions are not shown.
UniProt P14902, whole entry: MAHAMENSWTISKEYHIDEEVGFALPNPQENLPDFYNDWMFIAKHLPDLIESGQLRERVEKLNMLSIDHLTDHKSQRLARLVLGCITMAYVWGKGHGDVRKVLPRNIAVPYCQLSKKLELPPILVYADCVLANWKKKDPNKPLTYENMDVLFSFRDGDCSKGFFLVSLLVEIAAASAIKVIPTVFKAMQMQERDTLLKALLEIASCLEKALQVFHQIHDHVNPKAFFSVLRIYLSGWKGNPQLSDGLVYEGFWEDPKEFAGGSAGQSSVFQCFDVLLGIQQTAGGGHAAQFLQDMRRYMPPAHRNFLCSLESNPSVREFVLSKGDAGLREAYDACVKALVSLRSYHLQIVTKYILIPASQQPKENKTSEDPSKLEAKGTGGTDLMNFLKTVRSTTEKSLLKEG

What follows are compounds tested against IDO1 (Homo sapiens, UniProt P14902) (assay: IDO1 Cellular Assay in HeLa Cells Stimulated with IFNγ). Settings: HeLa cells stimulated with IFNγ 100 ng/mL, 300 uM L-tryptophan, about 48 hours, fluorescence readout; read-out: HeLa Cell Potency, IC50.
Format: cell-based
Work on `Cc1cc(OC(F)F)ncc1-c1ccc(C2(NC(=O)C34CC(C#N)(C3)C4)CCC2)nc1` [Example 43, 3-Cyano-N-(1-(6′-(difluoromethoxy)-4′-methyl-[3,3′-bipyridin]-6-yl)cyclobutyl)bicyclo[1.1.1]-pentane-1-carboxamide] yielded a pIC50 of 6.28.
Compound `Cc1cc(C2CC2)ncc1-c1ccc(C2(NC(=O)C34CC(C#N)(C3)C4)CCC2)nc1` [Example 44, 3-Cyano-N-(1-(6′-cyclopropyl-4′-methyl-[3,3′-bipyridin]-6-yl)cyclobutyl)bicyclo[1.1.1]pentane-1-carboxamide] has a pIC50 of 6.51.
For `O=C(NC1(c2ccc(-c3cnc(C(F)(F)F)cc3CO)cc2)COC1)c1ccc(F)cc1` [Example 45, 4-Fluoro-N-(3-(4-(4-(hydroxymethyl)-6-(trifluoromethyl)pyridin-3-yl)phenyl)oxetan-3-yl)benzamide], the pIC50 was 8.82.
For `O=C(NC1(c2ccc(-c3cnc(C(F)(F)F)cc3CO)cc2)CC1)c1ccc(Cl)cc1` [Example 46, 4-chloro-N-(1-(4-(4-(hydroxymethyl)-6-(trifluoromethyl)pyridin-3-yl)phenyl)cyclopropyl)benzamide], the pIC50 was 8.68.
`CC(C)(O)c1cc(OC2CC2)ncc1-c1ccc(C2(NC(=O)c3ccc(F)cc3)CC2)cc1` [Example 47, N-(1-(4-(6-cyclopropoxy-4-(2-hydroxypropan-2-yl)pyridin-3-yl)phenyl)cyclopropyl)-4-fluorobenzamide] was tested, and the pIC50 was 8.68.
`O=C(NC1(c2ccc(-c3cnc(OC4CC4)cc3CO)cc2)CC1)c1ccc(F)cc1` [Example 48, N-(1-(4-(6-cyclopropoxy-4-(hydroxymethyl)pyridin-3-yl)phenyl)cyclopropyl)-4-fluorobenzamide] was tested, and the pIC50 was 8.38.
With `CC(C)Oc1cc(CO)c(-c2ccc(C3(NC(=O)c4ccc(F)cc4)CC3)cc2)cn1` [Example 49, 4-fluoro-N-(1-(4-(4-(hydroxymethyl)-6-isopropoxypyridin-3-yl)phenyl)cyclopropyl)benzamide] the pIC50 was 8.57.
Compound `C[C@H](O)c1cc(C(F)(F)F)ncc1-c1ccc(C2(NC(=O)c3ccc(F)cc3)CC2)cc1` [Example 50, (S)-4-fluoro-N-(1-(4-(4-(1-hydroxyethyl)-6-(trifluoromethyl)pyridin-3-yl)phenyl)cyclopropyl)benzamide] has a pIC50 of 8.82.
In the case of `C[C@@H](O)c1cc(C(F)(F)F)ncc1-c1ccc(C2(NC(=O)c3ccc(F)cc3)CC2)cc1` [Example 51, (R)-4-fluoro-N-(1-(4-(4-(1-hydroxyethyl)-6-(trifluoromethyl)pyridin-3-yl)phenyl)cyclopropyl)benzamide, 2,2,2-trifluoroacetate salt], the pIC50 was 8.64.
Compound `CC(C)(O)c1cc(C(F)(F)F)ncc1-c1ccc(C2(NC(=O)c3ccc(F)cc3)CCC2)cc1` [Example 52, 4-fluoro-N-(1-(4-(4-(2-hydroxypropan-2-yl)-6-(trifluoromethyl)pyridin-3-yl)phenyl)cyclobutyl)benzamide] has a pIC50 of 8.66.
In the case of `O=C(NC1(c2ccc(-c3cnc(C(F)(F)F)cc3CO)cc2)CCC1)c1ccc(F)cc1` [Example 53], the pIC50 was 8.37.
With `CC(C)(O)c1cc(OC2CC2)ncc1-c1ccc(C2(NC(=O)c3ccc(F)cc3)CCC2)cc1` [Example 54, N-(1-(4-(6-cyclopropoxy-4-(2-hydroxypropan-2-yl)pyridin-3-yl)phenyl)cyclobutyl)-4-fluorobenzamide] the pIC50 was 8.66.
